# Values of other authors, collected in patent US6779468B1, “Method and pharmaceutical composition for iron delivery in hemodialysis and peritoneal dialysis patients” (priority 1997, dated 2004).
# Conditions: higher concentrations, intraperitoneal
substance,measurement,value
iron dextran,toxicity to the peritoneum,toxic to the peritoneum
